Results on 37 compounds are retold here after PubChem BioAssay AID2071 (Sanford-Burnham Center for Chemical Genomics, 2009).

Only a part is listed here, and it is no random draw. The source made the active and inactive calls. Cut-off read from the data, not from the text of the source: active = inhibition mostly above about 24% (no sharp cut-off); inactive = mostly below about 32%.

The nature of this assay: NALP1 inflammasome inhibitors in reconstituted yeast, colorimetric, S. cerevisiae, triplicate retest (AID 2071). As to conditions: S. cerevisiae NALP1/ASC/caspase-1 growth, X-gal OD620, 72 h; at 10 µM; stronger effect = higher value.
On to `CCOP1(=S)c2c(C)nn(CCC#N)c2N=C(c2ccc(F)cc2)N1C` (configuration not stated), for which the inhibition (as a rule, the relative decrease from the control value, in per cent) was inactive: -2.7%.

Consider `CN(C(=O)Cc1ccccc1)[C@@H]1CC[C@]2(CCCO2)C[C@H]1N1CCCC1`, for which the inhibition was inactive: -8.3%.

`O=[N+]([O-])c1ccc2c(c1)nnn2O`: the inhibition was inactive: 0.9%.

With `O=P(Nc1nccs1)(Oc1ccccc1)Oc1ccccc1`, the inhibition was inactive: 12.5%.

Turning to `O=P(Nc1nccs1)(c1ccccc1)c1nc2ccccc2s1` (configuration not stated), the inhibition was inactive: -26%.

On to `CCOP1(=S)c2c(C)nn(CCC#N)c2N=C(c2ccccc2F)N1C` (configuration not stated), for which the inhibition is inactive: -7.7%.

As for `CS(=O)(=O)c1cc([N+](=O)[O-])c2no[n+]([O-])c2c1`, the inhibition is inactive: 17.5%.

Turning to `Nc1ccccc1[As](=O)(O)c1ccccc1`, the inhibition was inactive: -13.7%.

For `O=C(O)COc1ccc([As](=O)(O)O)cc1[N+](=O)[O-]`, the inhibition is inactive: 17.5%.

`ClCCSc1nnc(-c2cccnc2)o1`: the inhibition is inactive: -46%.

As to `CC(C)c1ccc(OP(=O)(Nc2ccccn2)Oc2ccccc2F)cc1` (configuration not stated), the inhibition was inactive: -14.9%.

For `O=[N+]([O-])c1cc([N+](=O)[O-])c(-c2ccn[nH]2)s1`, the inhibition was inactive: 46.2%.

For the compound `CC(C)NC(=O)NP(=O)(Oc1ccccc1)Oc1ccccc1`, the inhibition is inactive: 6.3%.

As to `CCN(CC)C(=S)SC(NC=O)C(Cl)(Cl)Cl` (configuration not stated), the inhibition was inactive: 8.7%.

`O=[As](O)(c1ccc(O)cc1)c1ccccc1O`: the inhibition is inactive: -3.2%.

With `C[As](=O)(O)c1cccc(C(=O)O)c1`, the inhibition is inactive: 12.9%.

For the compound `Cc1ccc(OP(=O)(Nc2ccc([N+](=O)[O-])cn2)Oc2ccc(C)cc2)cc1`, the inhibition was inactive: 23.5%.

Regarding `Cc1ccc2nc3c(c(C)c2c1)CC(C(Cl)Cl)S3` (configuration not stated), the inhibition is inactive: 22.2%.

Consider `COc1ccc(N/C(=N/P(=O)(N2CCOCC2)N2CCOCC2)N2CCOCC2)cc1`, for which the inhibition was inactive: 16.9%.

Consider `Cc1c2c(nc3ccccc13)SC(C(Cl)Cl)C2` (configuration not stated), for which the inhibition was inactive: 26.2%.

As to `Cc1cc(=O)[nH]c(N[N+](=O)[O-])n1`, the inhibition is inactive: 14.2%.

Consider `O=C(OC1CN2CCC1CC2)C12CC3CC(CC(C3)C1)C2` (configuration not stated), for which the inhibition was inactive: 47.5%.

As for `COc1cc(I)ccc1[As](=O)(O)O`, the inhibition was inactive: -7%.

For `COc1ccc2nc(NP(=O)(c3ccccc3)c3ccccc3)sc2c1`, the inhibition was inactive: -3.6%.

Take `O=C(OC1CN2CCC1CC2)c1cccc([N+](=O)[O-])c1` (configuration not stated): the inhibition was inactive: 11.9%.

Take `CCOC(=O)c1ccc(NC(=O)C(C)(CCl)SC)cc1` (configuration not stated): the inhibition was inactive: -8.7%.

For the compound `CCC(C)N(CC(C)C)C(=S)SC(NC(C)=O)C(Cl)(Cl)Cl` (configuration not stated), the inhibition is inactive: 26.1%.

As to `COP1(=S)c2c(C)nn(CCC#N)c2N=C(c2ccc(F)cc2)N1C` (configuration not stated), the inhibition was active: 34.4%.

On to `O=C(Nc1ccncc1[N+](=O)[O-])c1ccc([N+](=O)[O-])cc1[N+](=O)[O-]`, for which the inhibition is inactive: 8.2%.

Consider `O=C(COc1ccccc1)OC1CN2CCC1CC2` (configuration not stated), for which the inhibition was inactive: 26%.

As for `CCOC(=O)Nc1cccc([As](=O)(O)O)c1`, the inhibition was inactive: 9.9%.

Consider `O=P(Nc1ccccn1)(c1cccc2ccccc12)c1cccc2ccccc12`, for which the inhibition was inactive: 5%.

Turning to `Cc1cc(SC(NC=O)C(Cl)(Cl)Cl)ncn1` (configuration not stated), the inhibition is inactive: -22.9%.

Take `O=[N+]([O-])c1ccc(Nc2ccc(Oc3ccc([N+](=O)[O-])cc3[N+](=O)[O-])cc2)c([N+](=O)[O-])c1`: the inhibition was inactive: 7.7%.

For the compound `CCOC(=O)Nc1ccc([As](=O)(O)O)c(O)c1`, the inhibition is inactive: 6.2%.

For the compound `Cc1cc(SC(NC(=O)c2ccccc2)C(Cl)(Cl)Cl)nc(C(C)C)n1` (configuration not stated), the inhibition was inactive: 19%.

For the compound `CCCCOc1ccc(C(=O)NCC2(N3CCCCC3)CCCCC2)cc1OC`, the inhibition is inactive: 2%.
